# Source: patent US20140163096A1, “METHODS AND COMPOSITIONS FOR TREATING HIV-ASSOCIATED DIARRHEA” (priority 2012, published 2014)
# Sequences of proteins named here, by UniProt entry; tags and fusion partners are left off. A change or cut given only in a name is not applied to a line headed by its entry.
# UniProt Q12809: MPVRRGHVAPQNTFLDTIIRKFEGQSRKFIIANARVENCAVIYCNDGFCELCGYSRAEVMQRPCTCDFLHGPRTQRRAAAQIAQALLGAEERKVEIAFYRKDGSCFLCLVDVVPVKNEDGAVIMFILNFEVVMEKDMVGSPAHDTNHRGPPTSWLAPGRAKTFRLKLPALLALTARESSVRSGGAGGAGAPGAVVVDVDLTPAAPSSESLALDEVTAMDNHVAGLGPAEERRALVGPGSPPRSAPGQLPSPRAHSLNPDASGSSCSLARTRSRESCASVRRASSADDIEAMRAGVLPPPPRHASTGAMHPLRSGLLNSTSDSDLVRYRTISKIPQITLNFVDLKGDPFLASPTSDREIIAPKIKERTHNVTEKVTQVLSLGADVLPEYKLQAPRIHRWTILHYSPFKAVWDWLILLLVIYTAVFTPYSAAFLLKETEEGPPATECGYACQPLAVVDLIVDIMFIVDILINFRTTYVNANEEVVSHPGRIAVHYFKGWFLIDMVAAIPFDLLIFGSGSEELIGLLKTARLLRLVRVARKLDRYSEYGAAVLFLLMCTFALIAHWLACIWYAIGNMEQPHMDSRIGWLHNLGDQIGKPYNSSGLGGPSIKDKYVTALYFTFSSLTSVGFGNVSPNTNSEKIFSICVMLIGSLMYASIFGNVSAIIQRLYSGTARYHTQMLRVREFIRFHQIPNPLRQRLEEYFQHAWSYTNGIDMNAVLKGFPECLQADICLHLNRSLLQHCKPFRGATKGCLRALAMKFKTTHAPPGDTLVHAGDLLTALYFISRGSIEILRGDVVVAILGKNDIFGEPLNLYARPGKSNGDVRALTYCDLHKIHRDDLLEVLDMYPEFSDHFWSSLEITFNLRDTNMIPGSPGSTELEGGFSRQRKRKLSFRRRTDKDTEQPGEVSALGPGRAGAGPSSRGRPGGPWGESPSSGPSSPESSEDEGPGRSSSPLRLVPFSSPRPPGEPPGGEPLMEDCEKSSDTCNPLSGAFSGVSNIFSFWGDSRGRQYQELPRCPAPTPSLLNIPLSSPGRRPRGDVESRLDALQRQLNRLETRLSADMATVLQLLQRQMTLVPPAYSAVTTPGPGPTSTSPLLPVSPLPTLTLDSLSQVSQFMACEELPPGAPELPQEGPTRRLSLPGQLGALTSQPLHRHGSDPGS
# Molecular target: hERG ion channel (Homo sapiens, UniProt Q12809)
# Test: in vitro
compound,measurement,value
COc1cc(N)c(Cl)cc1C(=O)NC1CCN(CCCOc2ccc(F)cc2)CC1OC (stereo not shown) [Cisapride],inhibition at 10 µM,99.7%
